# Yeast mating assay 2: variants of the scFv Ab-91

Binding partner: SARS-CoV-2 spike HR2 peptide, sequence PDVDLGDISGINAS.

The variants keep the light chain, the linker and the frameworks of Ab-91 (scFv order VL, a (GGGGS)3 linker, VH).
VL: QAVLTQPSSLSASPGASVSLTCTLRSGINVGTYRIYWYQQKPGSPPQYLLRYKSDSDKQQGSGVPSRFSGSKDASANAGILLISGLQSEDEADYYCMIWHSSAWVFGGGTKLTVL
VH: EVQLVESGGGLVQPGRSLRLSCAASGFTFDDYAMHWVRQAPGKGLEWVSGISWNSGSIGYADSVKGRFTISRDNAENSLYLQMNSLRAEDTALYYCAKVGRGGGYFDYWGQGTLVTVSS

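Variants in AAYL51 differ from the parent at up to three CDR positions; double and triple changes were sampled at random. In AlphaSeq, yeast of one mating type display the scFv and yeast of the other type display the target. Binding brings cells together so that they mate, and sequencing counts the barcode pairs among the diploids. Each replicate has its own calibration line, from reference interactions of the BCL2 family. The assay was run in three technical replicates.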

Substitutions are numbered in sequence along the VH above, starting at 1 (not Kabat). Affinities are written as log10 Kd with Kd in nM; a lower number is a better binder. "ND" means that the variant was in the library but no mating with the target was seen in that replicate; the authors take this as a sign of poor binding, and no number exists. Nonspecific signal, from three strains lacking the peptide, appeared in 21% of pairings of library AAYL51, centred on 4.54 (5% of these signals below 3.26); values are not corrected for it. Also given: how often the same scFv was detected with the empty control strains, with their mean in brackets.

changes	log10 Kd, replicates	signal with controls
Y32D S63I V99I	3.55 ND ND	0/9
D31T H35F G104V	ND ND ND	0/9
W53P S63H Y105W	1.10 1.49 0.75	3/9 (3.85)
S52P Y60C G104E	ND ND ND	0/9
D31Q N54V S55K	ND ND ND	1/9 (3.56)
F27P I58W G59V	ND 3.38 ND	1/9 (2.81)
G50T G59A A61N	5.16 5.04 ND	5/9 (4.35)
D30S G50R S57G	6.12 4.38 ND	7/9 (4.65)
Y32C S52A G102N	3.58 ND ND	0/9
S57P V64K G104D	ND 4.24 ND	0/9
T28D A61T	ND ND ND	0/9
I58R K65G Y105F	1.91 2.14 1.40	1/9 (3.40)
D31I G104N Y108W	ND ND ND	0/9
D30Q A33H W53G	ND ND ND	2/9 (4.05)
H35Y S52R D107T	ND ND ND	0/9
Y32D G56Q G102N	ND ND ND	0/9
S52G S55N G100A	ND ND ND	0/9
F29S S57Q G100Q	ND ND 3.44	0/9
G26N M34D G103L	4.68 4.32 ND	4/9 (5.12)
A33H M34P G59K	ND ND ND	0/9
Y60S G104V	ND ND ND	1/9 (5.62)
S55W A61C G104Y	ND ND ND	1/9 (5.62)
F29E A33L H35V	ND ND ND	0/9
S57Y I58V G102H	4.39 ND 5.03	6/9 (5.03)
G50A I58T G100H	ND 5.05 ND	3/9 (4.60)
D31I Y60S D107I	ND 4.97 ND	0/9
N54K V99K G102D	4.76 ND ND	3/9 (4.28)
G26W G59L R101P	ND ND ND	1/9 (4.06)
D30I S55D D62T	ND ND ND	0/9
D30H G50Y I51D	ND 3.79 ND	2/9 (4.69)
I51E N54R D62V	ND 4.72 ND	3/9 (4.39)
F29K I58Q Y108T	3.36 ND 4.85	1/9 (3.14)
Y60N G102I Y108H	4.73 4.86 ND	1/9 (3.91)
H35Y Y60C	ND ND ND	2/9 (3.61)
D30E S57L V99D	5.51 ND ND	2/9 (4.69)
S63W R101H F106C	2.05 1.73 1.39	3/9 (4.37)
D62F V99T G104C	ND 4.02 3.53	6/9 (4.25)
F29W I51G S57P	ND ND ND	2/9 (4.32)
H35W G103S G104N	ND ND ND	0/9
S55T F106T	ND ND ND	0/9
W53H A61C G102K	4.87 4.98 ND	1/9 (3.85)

The 3 strongest on average among those seen in every replicate, once more:

{"changes": "W53P S63H Y105W", "log10 Kd, replicates": "1.10 1.49 0.75", "signal with controls": "3/9 (3.85)"}
{"changes": "S63W R101H F106C", "log10 Kd, replicates": "2.05 1.73 1.39", "signal with controls": "3/9 (4.37)"}
{"changes": "I58R K65G Y105F", "log10 Kd, replicates": "1.91 2.14 1.40", "signal with controls": "1/9 (3.40)"}

For reference, the parent read 1.86 as the reference entry and 0.88 as a member of this library.

From the AlphaSeq antibody data of Engelhart et al. 2022 (doi:10.1038/s41597-022-01779-4), copy in the FLAb collection.